In patent publication US9855310B2, “Coix seed oil containing 8 triglycerides, and pharmaceutical preparation and use thereof” (ZHEJIANG KANGLAITE GROUP CO., LTD., priority 2014, dated 2018):

Test system: QGY human hepatoma
Experiment: Growth of QGY human hepatoma transplanted in nude mice
Settings: 2 mg/kg, ip × 7qd

Question: With `COc1cccc2c1C(=O)c1c(O)c3c(c(O)c1C2=O)C[C@@](O)(C(=O)CO)C[C@@H]3O[C@H]1C[C@H](N)[C@H](O)[C@H](C)O1` [Adriamycin] as the molecule, how does the “Weight of animal start/end: start” value read?
Answer: Its value is 21.7.
